{
  "source": "patent US20100221709A1",
  "about": "“METHODS FOR IDENTIFYING AGENTS THAT MODULATE APOPTOSIS IN CELLS THAT OVER-EXPRESS A BCL-2 FAMILY MEMBER PROTEIN” (priority 2005, published 2010)",
  "test_system": "TABX1A cells (Bcl-xL antisense)",
  "experiment": "Cell viability by trypan blue dye exclusion",
  "conditions": "estimated from the dose-response curve",
  "text": "Briefly, a DNA fragment encoding the full-length mouse Bcl-xL cDNA was isolated from the plasmid pBS-BCL-xL (Tzung et al., Am. J. Path. 150:1985-1995 (1997), incorporated herein by reference in its entirety) by digestion with the restriction endonuclease EcoRI. This EcoRI fragment was cloned into the EcoRI site of the mammalian expression vector pSFFV (Fuhlbrigge et al., Proc. Nat. Acad. Sci. USA 85:5649-5653 (1988)) in both sense and antisense orientations, to form expression plasmids pSFFV-Bc/-xL-WT(sense) or pSFFV-Bc/-xL(antisense), respectively. The tumorigenic murine hepatocyte cell line TAMH was transfected by lipofection (Lipofectamine, Life Technologies, Rockville, Md., according to the manufacturer's recommendations) with the plasmids pSFFV-neo (the control), pSFFV-Bc/-xL-WT(sense) or pSFFV-Bc/-xL(antisense). Characterization of and culture conditions for the cell lines have been previously published (Wu et al., Proc. Nat. Acad. Sci. USA 91:674-78 (1994); Wu et al., Cancer Res. 54:5964-5973 (1994)). […]\nSelected transfectants were then tested for whole cell sensitivity to several apoptotic agents. […] Cell viability was determined by trypan blue dye exclusion. The percentage of viable cells was calculated by the number of viable cells (treated with a particular apoptogenic agent) divided by the number in the control group (untreated). […]",
  "data": [
    {"substance": "antimycin A", "values": [
      {"measurement": "LD50", "value": 8.3, "unit": "µM"}
    ]}
  ]
}
